This note sets out measurements from paper PMC9865214, “Unique, Specific CART Receptor-Independent Regulatory Mechanism of CART(55-102) Peptide in Spinal Nociceptive Transmission and Its Relation to Dipeptidyl-Peptidase 4 (DDP4)” (International Journal of Molecular Sciences, 2023).

The assay relates to DPP4. The assay is described as follows: DPP4 inhibitor screening assay. The format is biochemical. Conditions: fluorogenic Gly-Pro-AMC substrate; ex 355 nm, em 460 nm; triplicates.

Take `N[C@@H](CC(=O)N1CCn2c(nnc2C(F)(F)F)C1)Cc1cc(F)c(F)cc1F` [Sitagliptin]: the DPP4 enzyme activity/inhibition result was “completely abolished DPP4 enzyme activity”.
